Reference: patent publication US20090131354A1, “miR-126 REGULATED GENES AND PATHWAYS AS TARGETS FOR THERAPEUTIC INTERVENTION” (priority 2007, published 2009)

Test system: A549 cells
Assay: mRNA array gene expression analysis after transfection
Type: cell-based, human
Details: A549, 30 nM

## hsa-miR-126
  Δ log2 RDX mRNA: 1.155 log2
